Values quoted from earlier work as cited in article PMC6691393.
pKd: −log10 of the molar value.

Sequences of proteins named here, by UniProt entry; tags and fusion partners are left off. Residues count along the entry.
UniProt P98170, 262-333: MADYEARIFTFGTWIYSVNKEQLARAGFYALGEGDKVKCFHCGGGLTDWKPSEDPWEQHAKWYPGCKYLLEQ
UniProt Q9NR28, whole entry, looked up, tested part not stated: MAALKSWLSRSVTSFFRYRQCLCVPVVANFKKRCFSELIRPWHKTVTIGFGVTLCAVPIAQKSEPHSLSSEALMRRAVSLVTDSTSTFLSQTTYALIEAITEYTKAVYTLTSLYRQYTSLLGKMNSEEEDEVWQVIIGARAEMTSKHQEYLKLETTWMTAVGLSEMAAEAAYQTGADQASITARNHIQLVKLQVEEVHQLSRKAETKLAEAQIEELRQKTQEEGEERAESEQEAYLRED

Target: XIAP BIR3 (Homo sapiens) (UniProt P98170)

pKd: 6.61
Substance: SMAC/Diablo N-terminal peptide (from UniProt Q9NR28)
